The text below walks through data of PubChem BioAssay AID2237 (Johns Hopkins Ion Channel Center, 2010).

Amino acid sequences for entries named in this document (tags omitted).
UniProt Q9QUQ5, whole entry: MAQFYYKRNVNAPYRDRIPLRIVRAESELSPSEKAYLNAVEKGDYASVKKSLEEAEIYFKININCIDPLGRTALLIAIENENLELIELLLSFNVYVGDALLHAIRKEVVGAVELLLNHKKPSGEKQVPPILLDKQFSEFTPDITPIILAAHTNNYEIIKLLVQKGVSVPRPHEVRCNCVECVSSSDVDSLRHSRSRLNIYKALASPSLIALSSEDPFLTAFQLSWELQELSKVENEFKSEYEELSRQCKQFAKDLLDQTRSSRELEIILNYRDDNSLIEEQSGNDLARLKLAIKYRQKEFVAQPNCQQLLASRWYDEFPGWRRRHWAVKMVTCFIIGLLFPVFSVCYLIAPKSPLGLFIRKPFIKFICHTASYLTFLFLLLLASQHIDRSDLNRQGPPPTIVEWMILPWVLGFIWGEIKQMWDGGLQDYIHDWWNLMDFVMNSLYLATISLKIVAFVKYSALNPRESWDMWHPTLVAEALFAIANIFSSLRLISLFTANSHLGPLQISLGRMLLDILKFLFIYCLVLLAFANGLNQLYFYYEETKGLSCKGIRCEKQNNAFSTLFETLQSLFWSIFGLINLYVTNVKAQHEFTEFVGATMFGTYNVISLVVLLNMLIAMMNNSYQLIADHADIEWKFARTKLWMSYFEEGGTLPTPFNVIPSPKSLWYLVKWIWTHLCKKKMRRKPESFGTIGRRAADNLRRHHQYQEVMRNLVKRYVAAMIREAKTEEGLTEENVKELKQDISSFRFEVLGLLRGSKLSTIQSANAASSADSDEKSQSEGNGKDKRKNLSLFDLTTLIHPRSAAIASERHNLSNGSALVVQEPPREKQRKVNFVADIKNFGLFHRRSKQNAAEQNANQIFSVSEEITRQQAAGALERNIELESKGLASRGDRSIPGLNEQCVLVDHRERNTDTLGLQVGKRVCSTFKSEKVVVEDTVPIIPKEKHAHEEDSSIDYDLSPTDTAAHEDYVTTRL

The list shows a part of the results, in another mix than the full data. The source made the active and inactive calls.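 How the source made its calls: active means B-score above 5 SD of library B-scores, and initial fluorescence ratio not above library mean plus 5 SD; inactive means the rest.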

This assay has as its target Short transient receptor potential channel 4 (Mus musculus) (UniProt Q9QUQ5). Nature of the assay: activators of mouse TRPC4 channel, primary screen, Fluo4 calcium, HEK293 TRPC4beta/mu-opioid cells (AID 2237).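 On B-score: positive B-score marks a calcium rise read as TRPC4 activation.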 Conditions: Fluo4 calcium fluorescence, at 10 µM; active compounds read high.
In the case of `CC(C)(C)C(=O)NC(Sc1ncccn1)C(Cl)(Cl)Cl` (stereo not given), the outcome was inactive.
The same measure, in the same setting: to `Clc1n[nH]nc1-c1nn[nH][15n]1` belongs “inactive”; to `O=[N+]([O-])c1cc([N+](=O)[O-])c(-n2nnc3ccccc32)c([N+](=O)[O-])c1`, “inactive”.
In the case of `CCOP(=O)(NC(=NC(C)c1ccccc1)NC(C)c1ccccc1)OCC` (stereo not given), the outcome was inactive.
Still for that read-out and setting: to `O=P1(Nc2ccccn2)COc2ccccc2OC1` belongs “inactive”; to `CCC1=CC2Cc3nc4ccc(Cl)cc4c(N)c3C(C1)C2` (stereo not given), “inactive”; to `CCOP(=O)(Nc1ccc(C)cn1)OCC`, “inactive”.
For the compound `CN(CCCl)Cc1cc(Cl)c(NC2=NCCN2)c(Cl)c1`, the result was inactive.
Same read-out and setting: to `CC(C)/C=N\N=C(\N)N[N+](=O)[O-]` belongs “inactive”.
Regarding `CN(C(=O)Cc1ccc(Cl)c(Cl)c1)[C@@H]1CCCC[C@H]1N1CCCC1`, the result was inactive.
Same read-out and setting: to `CC1(CBr)Cn2c(nc3ccccc3c2=O)S1` (stereo not given) belongs “inactive”.
Still for that read-out and setting: to `O=[As](O)(c1ccccc1Br)c1ccccc1Br` belongs “inactive”.
On the same count and under the same terms, the same measure for `O=[N+]([O-])c1cc([N+](=O)[O-])c(-c2cnn(-c3ccccc3)c2)c([N+](=O)[O-])c1`: “inactive”.
With `COc1ccccc1CNC(=O)COC(=O)C(O)(c1ccccc1)c1ccccc1`, the result was inactive.
On the same count and under the same terms, the same measure for `CCOC(=O)C(CC)C1=NC(C)(C)Cc2ccccc21.O=[N+]([O-])c1cc([N+](=O)[O-])c(O)c([N+](=O)[O-])c1` (stereo not given): “inactive”.
The same measure, in the same setting: to `O=[N+]([O-])c1cc([N+](=O)[O-])c(Nc2nnnn2CCO)c([N+](=O)[O-])c1` belongs “inactive”; to `O=C(/C=C/c1ccccc1)OC1CN2CCC1CC2` (stereo not given), “inactive”.
The same measure, in the same setting: to `CC1CCC(C(C)C)C(OP(=O)(Nc2ccccn2)c2ccccc2)C1` (stereo not given) belongs “inactive”.
`Cc1ccc(C(=O)OC2CN3CCC2CC3)cc1` (stereo not given): the outcome was inactive.
Same read-out and setting: the same measure for `Cc1nn(-c2ccccc2)c2c1P(=O)(N1CCOCC1)N(C)C(c1ccccc1)=N2` (stereo not given): “inactive”.
Still for that read-out and setting: the same measure for `COc1cc(C2NCCC3(OCCO3)C2(C)C)cc(OC)c1OC.O=[N+]([O-])c1cc([N+](=O)[O-])c(O)c([N+](=O)[O-])c1` (stereo not given): “inactive”; for `CCCOc1ccc(NP(C)(=O)Oc2ccc(Cl)cc2)cc1` (stereo not given): “inactive”; for `Nc1cccc([As](=O)(O)c2ccccc2)c1`: “inactive”.
The same measure, in the same setting: the same measure for `CP(=O)(Nc1ccc(SC(F)(F)F)cc1)Oc1ccccc1` (stereo not given): “inactive”; for `Cc1ccc(OCC(=O)OC2CN3CCC2CC3)cc1` (stereo not given): “inactive”.
On to `O=[As](O)(c1cccs1)c1cccs1`, for which the outcome was inactive.
Turning to `O=P1(Nc2ccc(Br)cn2)COc2ccccc2OC1`, the result was inactive.
Same read-out and setting: the same measure for `COc1ccccc1OP(C)(=O)Nc1c(C)cccc1C` (stereo not given): “inactive”; for `CN1CCCCC1COC(=O)C1(O)c2ccccc2CCc2ccccc21` (stereo not given): “inactive”.
Same read-out and setting: the same measure for `O=P1(Nc2ncccn2)COc2ccccc2OC1`: “inactive”; for `Nc1ccccc1[As](=O)(O)c1ccccc1`: “inactive”.
Still for that read-out and setting: to `O=C(O)COc1ccc([As](=O)(O)O)cc1[N+](=O)[O-]` belongs “inactive”; to `O=P(Nc1nccs1)(Oc1ccccc1)Oc1ccccc1`, “inactive”.
As for `O=P(Nc1nccs1)(c1ccccc1)c1nc2ccccc2s1` (stereo not given), the outcome was inactive.
As for `CCOP1(=S)c2c(C)nn(CCC#N)c2N=C(c2ccccc2F)N1C` (stereo not given), the result was inactive.
With `O=C(O)c1cccc(Nc2c([N+](=O)[O-])cc([N+](=O)[O-])cc2[N+](=O)[O-])c1`, the result was inactive.
Same read-out and setting: to `CS(=O)(=O)c1cc([N+](=O)[O-])c2no[n+]([O-])c2c1` belongs “inactive”; to `CCOP1(=S)c2c(C)nn(CCC#N)c2N=C(c2ccc(F)cc2)N1C` (stereo not given), “inactive”; to `CN(C(=O)Cc1ccccc1)[C@@H]1CC[C@]2(CCCO2)C[C@H]1N1CCCC1`, “inactive”.
Same read-out and setting: the same measure for `N#CCCN(C(=O)COC(=O)C(O)(c1ccccc1)c1ccccc1)c1ccc(F)cc1`: “inactive”; for `CC1=NCCc2c1[nH]c1ccccc21.O=[N+]([O-])c1cc([N+](=O)[O-])c(O)c([N+](=O)[O-])c1`: “inactive”.
On to `CN(C(=O)Cc1ccc(Cl)c(Cl)c1)[C@H]1CC[C@@]2(CCCO2)C[C@@H]1N1CCCC1`, for which the B-score is active: 76.
For the compound `O=[N+]([O-])c1ccc2c(c1)nnn2O`, the result was inactive.
The same measure, in the same setting: to `CN(C)C(=O)c1cc([N+](=O)[O-])cc2c1-c1c(cc([N+](=O)[O-])cc1[N+](=O)[O-])C2=O` belongs “inactive”; to `NC(=O)Nc1ccc([As](=O)(O)O)cc1`, “inactive”.
Take `Cc1cc(C)cc(OP(C)(=O)Nc2ccc(C)cc2C)c1` (stereo not given): the outcome was inactive.
Regarding `Cc1cccc(OCC(=O)OC2CN3CCC2CC3)c1` (stereo not given), the result was inactive.
On the same count and under the same terms, to `O=[As](O)(c1cccc(O)c1)c1cccc(O)c1` belongs “inactive”.
The same measure, in the same setting: to `CCOC(=O)c1ccc(NP(C)(=O)Oc2cc(C)cc(C)c2)cc1` (stereo not given) belongs “inactive”; to `O=C(OC1CN2CCC1CC2)c1ccc(Cl)cc1` (stereo not given), “inactive”.
The same measure, in the same setting: the same measure for `COc1ccccc1OP(C)(=O)Nc1cccc(Br)c1` (stereo not given): “inactive”.
In the case of `CS(=O)(=O)c1ccc(Cl)c(NC(=O)COC(=O)C(O)(c2ccccc2)c2ccccc2)c1`, the outcome was inactive.
Same read-out and setting: the same measure for `O=[As](O)(O)c1cccnc1`: “inactive”; for `COc1cc(C(=O)NCC2(N3CCOCC3)CCCCC2)cc(Cl)c1OC(C)C`: “inactive”; for `CCOP(=O)(Nc1cccc2ccccc12)OCC`: “inactive”.
Still for that read-out and setting: to `Cc1ccc(NCCc2c([N+](=O)[O-])cc([N+](=O)[O-])cc2[N+](=O)[O-])cc1` belongs “inactive”; to `Nc1cccc2c([As](=O)(O)O)cccc12`, “inactive”.
Same read-out and setting: the same measure for `Cc1cc(C)cc(OP(C)(=O)Nc2ccccn2)c1` (stereo not given): “inactive”; for `CP(=O)(Nc1cccc(Br)c1)Oc1ccccc1` (stereo not given): “inactive”.
Regarding `Cc1ccc(C)c(NP(C)(=O)Oc2ccccc2)c1` (stereo not given), the outcome was inactive.
As to `CCCOP(=S)(Nc1nc(N)cc(=O)[nH]1)OCCC`, the result was inactive.
The same measure, in the same setting: to `COc1cc(I)ccc1[As](=O)(O)O` belongs “inactive”; to `COc1ccc2nc(NP(=O)(c3ccccc3)c3ccccc3)sc2c1`, “inactive”; to `Cc1c2c(nc3ccccc13)SC(C(Cl)Cl)C2` (stereo not given), “inactive”.
Take `Cc1cc(=O)[nH]c(N[N+](=O)[O-])n1`: the result was inactive.
Still for that read-out and setting: the same measure for `CCN(CC)CCCOC(=O)C(O)(c1ccccc1)c1ccccc1`: “inactive”; for `O=C(OC1CN2CCC1CC2)C12CC3CC(CC(C3)C1)C2` (stereo not given): “inactive”; for `COc1ccc(N/C(=N/P(=O)(N2CCOCC2)N2CCOCC2)N2CCOCC2)cc1`: “inactive”.
On the same count and under the same terms, the same measure for `Cc1cccc(C)c1OP(C)(N)=O` (stereo not given): “inactive”; for `Cc1ccc(OP(=O)(Nc2ccc([N+](=O)[O-])cn2)Oc2ccc(C)cc2)cc1`: “inactive”; for `CC(C)(C)c1ccc(OP(C)(=O)Nc2ccc(SC(F)(F)F)cc2)cc1` (stereo not given): “inactive”.
The same measure, in the same setting: to `O=[N+]([O-])c1ccc2c(c1)C=Nc1ccccc1O2` belongs “inactive”.
With `Cc1ccc2nc3c(c(C)c2c1)CC(C(Cl)Cl)S3` (stereo not given), the outcome was inactive.
On to `O=[N+]([O-])c1cc([N+](=O)[O-])c(Nc2cccnc2)c([N+](=O)[O-])c1`, for which the outcome was inactive.
Same read-out and setting: the same measure for `O=[As](O)(c1ccc(O)cc1)c1ccccc1O`: “inactive”; for `C[As](=O)(O)c1cccc(C(=O)O)c1`: “inactive”.
Still for that read-out and setting: to `COc1ccc(OP(C)(=O)Nc2cccc(F)c2)cc1` (stereo not given) belongs “inactive”; to `O=[N+]([O-])c1cc([N+](=O)[O-])c(-c2ccn[nH]2)s1`, “inactive”.
Still for that read-out and setting: the same measure for `COc1ccccc1OP(C)(=O)Nc1cc(Cl)ccc1C` (stereo not given): “inactive”; for `CC(C)NC(=O)NP(=O)(Oc1ccccc1)Oc1ccccc1`: “inactive”.
With `CCN(CC)C(=S)SC(NC=O)C(Cl)(Cl)Cl` (stereo not given), the result was inactive.
Still for that read-out and setting: the same measure for `Cc1cc(C)cc(OP(C)(N)=O)c1` (stereo not given): “inactive”.
As to `ClCCSc1nnc(-c2cccnc2)o1`, the result was inactive.
Still for that read-out and setting: the same measure for `CCOC(=O)c1ccc(NP(C)(=O)Oc2ccccc2)cc1` (stereo not given): “inactive”; for `Cc1ccc(NP(C)(=O)Oc2ccccc2)c(C)c1` (stereo not given): “inactive”.
`CC(C)c1ccc(OP(=O)(Nc2ccccn2)Oc2ccccc2F)cc1` (stereo not given): the outcome was inactive.
On the same count and under the same terms, to `COc1ccccc1OP(C)(=O)Nc1ccc(C)cc1` (stereo not given) belongs “inactive”; to `Cc1cc(SC(NC(=O)c2ccccc2)C(Cl)(Cl)Cl)nc(C(C)C)n1` (stereo not given), “inactive”; to `CCCCOc1ccc(C(=O)NCC2(N3CCCCC3)CCCCC2)cc1OC`, “inactive”.
On the same count and under the same terms, to `CCOC(=O)Nc1ccc([As](=O)(O)O)c(O)c1` belongs “inactive”; to `COc1ccccc1OP(C)(=O)Nc1ccccc1` (stereo not given), “inactive”.
The same measure, in the same setting: the same measure for `O=P(Nc1ccccn1)(c1cccc2ccccc12)c1cccc2ccccc12`: “inactive”; for `Cc1cc(SC(NC=O)C(Cl)(Cl)Cl)ncn1` (stereo not given): “inactive”.
On to `O=[N+]([O-])c1ccc(Nc2ccc(Oc3ccc([N+](=O)[O-])cc3[N+](=O)[O-])cc2)c([N+](=O)[O-])c1`, for which the result was inactive.
The same measure, in the same setting: to `CP(=O)(Nc1ccccc1Br)Oc1ccccc1` (stereo not given) belongs “inactive”; to `CP(=S)(Nn1cnnc1)Oc1ccccc1` (stereo not given), “inactive”; to `CCOC(=O)Nc1cccc([As](=O)(O)O)c1`, “inactive”.
Take `Cc1cc(C)cc(OP(C)(=O)Nc2ccc(SC(F)(F)F)cc2)c1` (stereo not given): the result was inactive.
On the same count and under the same terms, to `O=C(Nc1ccncc1[N+](=O)[O-])c1ccc([N+](=O)[O-])cc1[N+](=O)[O-]` belongs “inactive”; to `O=C(COc1ccccc1)OC1CN2CCC1CC2` (stereo not given), “inactive”; to `CP(=O)(NC(=O)Nc1ccccc1)Oc1ccccc1` (stereo not given), “inactive”.
Same read-out and setting: the same measure for `CCc1ccc(OP(C)(=O)N2CCN(c3ccc([N+](=O)[O-])cc3)CC2)cc1` (stereo not given): “inactive”; for `CP(=O)(Oc1ccccc1)OC(c1ccccc1)C(F)(F)F` (stereo not given): “inactive”.
Same read-out and setting: the same measure for `COP1(=S)c2c(C)nn(CCC#N)c2N=C(c2ccc(F)cc2)N1C` (stereo not given): “inactive”; for `Cc1cccc(C)c1OP(C)(=O)Nc1ccc(SC(F)(F)F)cc1` (stereo not given): “inactive”.
For the compound `CP(=O)(Nc1ccc(SC(F)(F)F)cc1)Oc1ccc(Cl)cc1` (stereo not given), the outcome was inactive.
Still for that read-out and setting: the same measure for `CCC(C)N(CC(C)C)C(=S)SC(NC(C)=O)C(Cl)(Cl)Cl` (stereo not given): “inactive”.
Same read-out and setting: the same measure for `CP(=O)(Nc1ccccn1)Oc1ccc(Cl)cc1` (stereo not given): “inactive”.
On the same count and under the same terms, to `CCOP(C)(=S)SCC(=O)NC(C)C(=O)O` (stereo not given) belongs “inactive”.
On to `O=C(OC1CN2CCC1CC2)c1cccc([N+](=O)[O-])c1` (stereo not given), for which the outcome was inactive.
On the same count and under the same terms, to `CCOC(=O)c1ccc(NP(C)(=O)Oc2ccc(OC)cc2)cc1` (stereo not given) belongs “inactive”; to `CCOC(=O)c1ccc(NC(=O)C(C)(CCl)SC)cc1` (stereo not given), “inactive”.
As for `O=[N+]([O-])c1cc([N+](=O)[O-])c(O)c([N+](=O)[O-])c1.c1ccc(Oc2ccncc2)cc1`, the outcome was inactive.
Still for that read-out and setting: the same measure for `CCc1ccc(OP(C)(=O)Nc2cccnc2)cc1` (stereo not given): “inactive”; for `CCc1nc2c(n1)c1c(non1O)c1c2no[n+]1[O-]`: “inactive”.
